# Test results reported in patent publication US20260167673A1, “NOVEL POLYPEPTIDE, POLYPEPTIDE DERIVATIVE AND USE THEREOF” (NANJING ANJI BIOTECHNOLOGY CO., LTD., priority 2023, published 2026).
# Legend:
# [1] = tested on: subcutaneous xenograft tumor model using tongue squamous cell carcinoma cells CAL27; test: CAL27 subcutaneous xenograft, fusion protein (Example 10); format: in vivo, BALB/c nude mice; settings: 20 mg/kg twice weekly
# Description: The novel polypeptide HMMW15-51 (SEQ ID NO. 21) was conjugated to human IgG4 (NCBI Gene ID: 3503) via a GGGG linker, packaged into an expression plasmid (General Biol, Anhui), and transfected into CHO cells. The cells were expanded and subjected to fermentation. The supernatant was collected, and the fusion polypeptide was purified using an AKTA Pure protein purification system with Protein A (Yeasen Biotechnology: 36409ES03). Upon obtaining a sufficient quantity of fusion protein, animal experiments were initiated.
# Human tongue squamous cell carcinoma cells CAL27 were cultured, digested with 0.25% trypsin, centrifuged, and resuspended in serum-free DMEM medium to adjust the cell concentration to 5×10^7 cells/mL. Subsequently, 100 μL of the cell suspension (containing 5×10^6 cells) was subcutaneously inoculated into the left axilla of 4-6-week-old female BALB/c nude mice weighing 14-16 g, which had been acclimatized for one week in an SPF-level animal facility. When the average tumor volume reached approximately 80 mm^3 around 14 days post-inoculation, tumor-bearing mice were randomly divided into four groups: a saline control group, a low-dose fusion polypeptide group (7.5 mg/kg, administered twice weekly), a high-dose fusion polypeptide group (15 mg/kg, administered twice weekly), and a cetuximab control group (20 mg/kg, administered twice weekly). During the treatment period, tumor length (a) and width (b) were measured every five days using a vernier caliper, and tumor volume was calculated using the formula V=0.5×a×b^2. After 21 consecutive days of treatment, the mice were euthanized.
# [2] = tested on: CAL27 tumor xenografts in nude mice; test: CAL27 tumor xenografts, fatty diacid conjugates (Example 11); format: in vivo, BALB/c nude mice; settings: 20 mg/kg twice weekly
# Description: In this example, modification with the 18-carbon fatty diacid (HOOC—C16—COOH) included two forms: one involved direct attachment of the fatty diacid to the N-terminus (i.e., HOOC—C17-HMMW15-51); the other employed a small peptide linker, Ala-Ala-Asn, to connect the fatty diacid (i.e., HOOC—C17-L-HMMW15-51).
# Both HOOC—C17-HMMW15-51 and HOOC—C17-L-HMMW15-51 were synthesized using solid-phase peptide synthesis to couple amino acids. For conjugating the fatty diacid, the fatty acid was coupled to the peptide resin following standard solid-phase synthesis protocols to obtain the crude product. After cleavage, the target compounds were obtained via preparative high-performance liquid chromatography followed by lyophilization.
# Human tongue squamous cell carcinoma cells CAL27 were cultured, digested with 0.25% trypsin, centrifuged, and resuspended in serum-free DMEM medium to adjust the cell concentration to 5×10^7 cells/mL. Subsequently, 100 μL of the cell suspension (containing 5×10^6 cells) was subcutaneously inoculated into the left axilla of 4-6-week-old female BALB/c nude mice weighing 14-16 g, which had been acclimatized for one week in an SPF-level animal facility. […] During the treatment period, tumor length (a) and width (b) were measured every four days using a vernier caliper, and tumor volume was calculated using the formula V=0.5×a×b^2. After 21 consecutive days of treatment, the mice were euthanized.
substance,measurement,setting,value
cetuximab,tumor volume,[1]; D 1,81.98 ± 2.85 mm^3
same,tumor volume,[1]; D 6,100.39 ± 10.36 mm^3
same,tumor volume,[1]; D 11,110.93 ± 10.37 mm^3
same,tumor volume,[1]; D 16,152.18 ± 19.10 mm^3
same,tumor volume,[1]; D 21,206.78 ± 28.58 mm^3
same,tumor volume,[2]; D 1,68.56 ± 24.96 mm^3
same,tumor volume,[2]; D 5,137.39 ± 41.72 mm^3
same,tumor volume,[2]; D 9,173.47 ± 62.09 mm^3
same,tumor volume,[2]; D 13,205.53 ± 78.87 mm^3
same,tumor volume,[2]; D 17,282.32 ± 128.26 mm^3
same,tumor volume,[2]; D 21,332.74 ± 93.27 mm^3
